Measured values from patent publication US20130274212A1, “Sesterterpene Compounds and Use Thereof” (SNU R&DB FOUNDATION, priority 2010, published 2013).
pIC50: −log10 of the molar value.

Key:
LXR = test: GAL-hLXRa or GAL-hLXRB luciferase reporter antagonist assay in CV-1 cells; details: read-out: IC50 value on LXR, LXR agonist T0901517 500 nM
Description: Animal cell line CV-1 was used in transfection search. Cells were cultured in DMEM medium within a cell incubator containing 5% carbon dioxide at 37° C. The medium contained 10% fetal bovine serum (FBS), 100 U/ml penicillin, and 100 μg/ml streptomycin. On day 1 of the experiment, CV1 cells were seeded in a 96-well plate at 5,000 cells/well. On day 2, the seeded cells were transfected with plasmid expressing GAL-hLXRa or GAL-hLXRB, plasmid expressing luciferase gene, and plasmid expressing β-galactosidase, by using a transfection reagent, Superfect (QIAGEN). After 16 hours, the transfected cells were treated with compounds of Chemical Formula I dissolved in dimethylsulfoxide (DMSO) by the concentrations (here, the final concentration of the LXR agonist, T0901517, was 500 nM). Cells treated with dimethylsulfoxide having the final concentration of 1% were used as a negative control group. After culturing for 24 hours, the cells were lysed by using a lysis buffer, and luciferin was added thereto to measure the luciferase activity by a luminometer. After addition of an ONPG reagent, β-galactosidase activity was measured by an ELISA reader. The measured luciferase value was corrected by the activity value of β-galactosidase. […] Accordingly, it was verified that the compounds of Chemical Formula I are antagonist compounds selective to LXR.

[1] = tested on: Gyk, LXR, SREBP1c, SCD1, PPARa, UCP gene expression; test: Gene expression analysis (micro-array, Q-RT PCR) in diabetic mice fed with compound
Description: Gene expression analysis was conducted to establish the mechanism. The gene analysis was conducted by using micro-array and the Q-RT PCR method. In the mice fed with CMDD-X (or Compound 7), expression of Gyk as a glycolysis biomarker was increased (1.3 times), and expressions of LXR, SREBP1c, and SCD1, which are genes of synthesizing fatty acid by using decomposed glucose, were very increased (FIG. 12). Expressions of PPARa and UCP, which are genes for burning the newly generated fat to release heat, were increased (FIG. 13).

[2] = tested on: C57BL/6 mice administered with MPTP; test: MPTP-induced Parkinson's disease mice, Rotarod exercise capacity; details: oral 5 mg/kg once per day for 5 days before MPTP 25 mg/kg; measured after 3 days
Excerpt: In the present example, in order to verify efficacy to prevent and treat Parkinson's Disease of the compound of Chemical Formula I according to the present invention in the Parkinson's Disease as one of neurodegenerative diseases, mice administered with 1-methyl-4-phenyl-1,2,3,6-tetrahydropyridine (MPTP) were used. The efficacy to prevent and treat the Parkinson's Disease was verified by administering the compound of Chemical Formula I (CMDD-X or Compound 7) to a Parkinson's Disease-induced disease model and then measuring exercise capacity of the mice. C57BL/6 mice (male, 12-week old) were used. The mice were adapted to a housing environment for 1 week while pellet type general diet was supplied, and then divided into 3 groups of 5 mice each to have similar body weights. Before MPTP administration, the compound CMDD-X was orally administered at a concentration of 5 mg/kg. After 3 hours, probenecid as MPTP efflux inhibitor was intraperitoneally administered to the mice at a concentration of 250 mg/kg, and, after 2 hours, 25 mg/kg of MPTP was intraperitoneally administered. Administration was conducted once per one day for a total of 5 days, and, after 3 days, exercise capacity of the mice was measured by using the Rotarod. […]

SMILES: CC(C)=CCC/C(C)=C/[C@@H]1CC(C)=C[C@]2(C=C(CO)[C@H]3CC(=O)C(C)=C[C@H]3O2)O1
- pIC50 (LXR): 7.70
- expressions of LXR, SREBP1c, and SCD1 [1]: very increased
- expressions of PPARa and UCP [1]: increased
- expression of Gyk (glycolysis biomarker), increase ([1]; micro-array and Q-RT PCR): 1.3 times
- exercise capacity (Rotarod) [2]: recovered to a similar level to normal mice
